Assay results as given in patent publication US11464859B2 (priority 2005, dated 2022).
Read-outs that look alike come from different tables or passages of the source.

Legend:
[1] = for secondary parameters (safety parameters): any of the dose levels
[2] = test system: human tumour xenografts (renal cell carcinoma RXF 944LX, mammary cancer MAXF 401); test: subcutaneously transplanted human tumour xenografts in vivo

Substance: arsenous acid sodium salt
- safety (laboratory) parameters, overall ([1]; all patients): no clinically significant results
- secondary parameters (safety parameters) ([1]; patient H-W. S.): no clinically significant results
- secondary parameters (safety parameters) ([1]; patient five): no clinically significant results
- secondary parameters (safety parameters) ([1]; patient four): no clinically significant results
- secondary parameters (safety parameters) ([1]; patient one): no clinically significant results
- secondary parameters (safety parameters) ([1]; patient three): no clinically significant results
- secondary parameters (safety parameters) ([1]; patient two): no clinically significant results
- doses giving the highest efficacy [2]: ⅓-⅔
